Experimental data from patent publication US20210395313A1, “PEPTIDE PAC1 ANTAGONISTS” (AMGEN INC., priority 2017, published 2021).

Legend:
[1] = molecular target: T1, rat PAC1 receptor (Rattus norvegicus, UniProt P32215); assay: LANCE Ultra cAMP accumulation antagonist assay in RG-2 cells; format: cell-based;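 also: RG-2 rat glioma cells endogenously expressing PAC1, test peptide preincubated 30 min, then PAC1 agonist added at its EC80 for 15 min, cAMP accumulation read by LANCE Ultra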
T1 construct: SHSY-5Y (human neuroblastoma cell line) and RG-2 (rat glioma cell line) cells endogenously express human and rat PAC1 receptors, respectively; endogenous in cells; host or cells: RG-2 rat glioma cells
T1 sequence (P32215 20-523): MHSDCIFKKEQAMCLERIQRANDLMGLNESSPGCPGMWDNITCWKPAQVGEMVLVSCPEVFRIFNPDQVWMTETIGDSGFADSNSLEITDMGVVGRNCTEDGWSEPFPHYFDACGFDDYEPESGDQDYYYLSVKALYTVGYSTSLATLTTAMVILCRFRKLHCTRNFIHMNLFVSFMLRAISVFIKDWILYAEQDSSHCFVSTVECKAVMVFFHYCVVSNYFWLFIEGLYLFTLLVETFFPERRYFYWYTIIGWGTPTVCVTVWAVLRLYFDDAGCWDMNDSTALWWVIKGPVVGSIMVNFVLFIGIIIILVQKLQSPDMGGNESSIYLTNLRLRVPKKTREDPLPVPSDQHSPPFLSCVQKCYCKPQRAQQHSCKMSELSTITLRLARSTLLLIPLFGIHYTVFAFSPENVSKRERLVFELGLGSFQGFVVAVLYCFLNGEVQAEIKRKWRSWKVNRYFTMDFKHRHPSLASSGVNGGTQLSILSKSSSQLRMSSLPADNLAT

[2] = molecular target: T2, human PAC1 receptor (Homo sapiens, UniProt P41586); assay: LANCE Ultra cAMP accumulation antagonist assay in SHSY-5Y cells; format: cell-based;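 also: inhibition of cAMP accumulation evoked by PAC1 agonist at its EC80 in SHSY-5Y cells endogenously expressing receptor, 30 min preincubation then 15 min agonist, TR-FRET readout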
T2 construct: SHSY-5Y (human neuroblastoma cell line) and RG-2 (rat glioma cell line) cells endogenously express human and rat PAC1 receptors, respectively; endogenous in cells; host or cells: SHSY-5Y human neuroblastoma cells
T2 sequence (P41586 21-468): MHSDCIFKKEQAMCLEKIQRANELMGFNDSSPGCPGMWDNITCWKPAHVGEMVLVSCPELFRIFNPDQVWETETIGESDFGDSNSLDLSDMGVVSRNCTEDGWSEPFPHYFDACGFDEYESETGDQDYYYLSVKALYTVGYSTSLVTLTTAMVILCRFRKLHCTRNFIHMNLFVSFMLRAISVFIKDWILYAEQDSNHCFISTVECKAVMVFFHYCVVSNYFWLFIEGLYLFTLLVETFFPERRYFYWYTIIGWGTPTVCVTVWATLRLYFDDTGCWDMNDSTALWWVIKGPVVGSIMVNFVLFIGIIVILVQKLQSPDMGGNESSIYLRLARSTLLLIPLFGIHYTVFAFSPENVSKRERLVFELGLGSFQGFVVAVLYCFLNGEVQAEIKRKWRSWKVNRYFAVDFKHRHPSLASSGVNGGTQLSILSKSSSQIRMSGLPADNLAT

| SMILES | IC50 [1] [nM] | IC50 [2] [nM] |
| --- | --- | --- |
| CC[C@H](C)[C@H](NC(=O)[C@H](C)NC(=O)[C@H](CCCCN)NC(=O)[C@H](CCCNC(=N)N)NC(=O)[C@H](Cc1ccccc1)NC(=O)[C@H](CCC(N)=O)NC(=O)[C@@H]1CSSC[C@H](N)C(=O)N[C@@H](CC(=O)O)C(=O)N[C@@H](C)C(=O)N[C@@H]([C@@H](C)O)C(=O)N1)C(=O)N[C@@H](CC(=O)O)C(=O)N[C@@H](CC(=O)O)C(=O)N[C@H]1CSSC[C@@H](C(=O)N[C@@H](CCSC)C(=O)N[C@@H](CCCCN)C(=O)N[C@@H](CCC(N)=O)C(=O)N[C@@H](CCCCN)C(=O)N[C@@H](CCCCN)C(=O)N[C@@H](CCCCN)C(=O)N[C@@H](CCC(=O)O)C(=O)N[C@@H](Cc2ccccc2)C(=O)N[C@@H](CCCCN)C(=O)N[C@@H](C)C(=O)N[C@@H](CC(N)=O)C(=O)N[C@@H](CCCCN)C(=O)O)NC(=O)C(C)(C)NC(=O)[C@H](CCCCN)NC(=O)[C@H](Cc2ccccc2)NC(=O)[C@H](C(C)C)NC(=O)[C@H](CO)NC(=O)CNC(=O)[C@@H]2CCCN2C(=O)[C@H](C(C)C)NC(=O)[C@H](CC(N)=O)NC(=O)[C@H](CO)NC(=O)[C@H](Cc2c[nH]cn2)NC(=O)[C@H](Cc2c[nH]cn2)NC(=O)[C@H](C)NC(=O)[C@H](CCC(N)=O)NC(=O)[C@H](CCCCN)NC(=O)[C@H](CCC(N)=O)NC1=O [compound 161] | 0.01 to 1 | 0.01 to 1 |
| CCCC[C@H](NC(=O)[C@@H]1CSSC[C@H](NC(=O)[C@H](CC(=O)O)NC(=O)[C@H](CC(=O)O)NC(=O)[C@@H](NC(=O)[C@H](C)NC(=O)[C@H](CCCCN)NC(=O)[C@H](CCCNC(=N)N)NC(=O)[C@H](Cc2ccccc2)NC(=O)[C@H](CCC(N)=O)NC(=O)[C@@H]2CSSC[C@H](N)C(=O)N[C@@H](CC(=O)O)C(=O)N[C@@H](C)C(=O)N[C@@H]([C@@H](C)O)C(=O)N2)[C@@H](C)CC)C(=O)N[C@@H](CC(=O)O)C(=O)N[C@@H](CCCCN)C(=O)N[C@@H](CCC(N)=O)C(=O)N[C@@H](C)C(=O)N[C@@H](Cc2c[nH]cn2)C(=O)N[C@@H](Cc2c[nH]cn2)C(=O)N[C@@H](CO)C(=O)N[C@@H](CC(N)=O)C(=O)N[C@@H](C(C)C)C(=O)N2CCC[C@H]2C(=O)NCC(=O)N[C@@H](CO)C(=O)N[C@@H](C(C)C)C(=O)N[C@@H](Cc2ccccc2)C(=O)N[C@@H](CCCCN)C(=O)NC(C)(C)C(=O)N1)C(=O)N[C@@H](CCCCN)C(=O)N[C@@H](CCC(N)=O)C(=O)N[C@@H](CCCCN)C(=O)N[C@@H](CCCCN)C(=O)N[C@@H](CCCCN)C(=O)N[C@@H](CCC(=O)O)C(=O)N[C@@H](Cc1ccccc1)C(=O)N[C@@H](CCCCN)C(N)=O [compound 259] | 0.01 to 1 | 1 to 100 |
| CC[C@H](C)[C@H](NC(=O)[C@H](C)NC(=O)[C@H](CCCCN)NC(=O)[C@H](CCCNC(=N)N)NC(=O)[C@H](Cc1ccccc1)NC(=O)[C@H](CCC(N)=O)NC(=O)[C@@H]1CSSC[C@H](N)C(=O)N[C@@H](CC(=O)O)C(=O)N[C@@H](C)C(=O)N[C@@H]([C@@H](C)O)C(=O)N1)C(=O)N[C@@H](CC(=O)O)C(=O)N[C@@H](CC(=O)O)C(=O)N[C@H]1CSSC[C@@H](C(=O)N[C@@H](CCSC)C(=O)N[C@@H](CCCCN)C(=O)N[C@@H](CCC(N)=O)C(=O)N[C@@H](CCCCN)C(=O)N[C@@H](CCCCN)C(=O)N[C@@H](CCCCN)C(=O)N[C@@H](CCC(=O)O)C(=O)N[C@@H](Cc2ccccc2)C(=O)N[C@@H](CCCCN)C(=O)N[C@@H](C)C(=O)N[C@@H](CC(N)=O)C(N)=O)NC(=O)C(C)(C)NC(=O)[C@H](CCCCN)NC(=O)[C@H](Cc2ccccc2)NC(=O)[C@H](C(C)C)NC(=O)[C@H](CO)NC(=O)CNC(=O)[C@@H]2CCCN2C(=O)[C@H](C(C)C)NC(=O)[C@H](CC(N)=O)NC(=O)[C@H](CO)NC(=O)[C@H](Cc2c[nH]cn2)NC(=O)[C@H](Cc2c[nH]cn2)NC(=O)[C@H](C)NC(=O)[C@H](CCC(N)=O)NC(=O)[C@H](CCCCN)NC(=O)[C@H](CCC(N)=O)NC1=O [compound 228] | 0.01 to 1 | 0.01 to 1 |
| CCCC[C@H](NC(=O)[C@@H]1CSSC[C@H](NC(=O)[C@H](CC(=O)O)NC(=O)[C@H](CC(=O)O)NC(=O)[C@@H](NC(=O)[C@H](C)NC(=O)[C@H](CCCCN)NC(=O)[C@H](CCCNC(=N)N)NC(=O)[C@H](Cc2ccccc2)NC(=O)[C@H](CCC(N)=O)NC(=O)[C@@H]2CSSC[C@H](N)C(=O)N[C@@H](CC(=O)O)C(=O)N[C@@H](C)C(=O)N[C@@H]([C@@H](C)O)C(=O)N2)[C@@H](C)CC)C(=O)N[C@@H](CCC(N)=O)C(=O)N[C@@H](CCCCN)C(=O)N[C@@H](CCC(N)=O)C(=O)N[C@@H](C)C(=O)N[C@@H](Cc2c[nH]cn2)C(=O)N[C@@H](Cc2c[nH]cn2)C(=O)N[C@@H](CO)C(=O)N[C@@H](CO)C(=O)N[C@@H](C(C)C)C(=O)N[C@@H](Cc2ccccc2)C(=O)N[C@@H](CCCCN)C(=O)NC(C)(C)C(=O)N1)C(=O)N[C@@H](CCCCN)C(=O)N[C@@H](CCC(N)=O)C(=O)N[C@@H](CCCCN)C(=O)N[C@@H](CCCCN)C(=O)N[C@@H](CCCCN)C(=O)N[C@@H](CCC(=O)O)C(=O)N[C@@H](Cc1ccccc1)C(=O)N[C@@H](CCCCN)C(N)=O [compound 242] | 1 to 100 | 1 to 100 |
| CC[C@H](C)[C@H](NC(=O)[C@H](C)NC(=O)[C@H](CCCCN)NC(=O)[C@H](CCCNC(=N)N)NC(=O)[C@H](Cc1ccccc1)NC(=O)[C@H](CCC(N)=O)NC(=O)[C@@H]1CSSC[C@H](N)C(=O)N[C@@H](CC(=O)O)C(=O)N[C@@H](C)C(=O)N[C@@H]([C@@H](C)O)C(=O)N1)C(=O)N[C@@H](CC(=O)O)C(=O)N[C@@H](CC(=O)O)C(=O)N[C@H]1CSSC[C@@H](C(=O)N[C@@H](CCSC)C(=O)N[C@@H](CCCCN)C(=O)N[C@@H](CCC(N)=O)C(=O)N[C@@H](CCCCN)C(=O)N[C@@H](CCCCN)C(=O)N[C@@H](CCCCN)C(=O)N[C@@H](CCC(=O)O)C(=O)N[C@@H](Cc2ccccc2)C(=O)N[C@@H](CCCCN)C(=O)N[C@@H](C)C(=O)N[C@@H](C)C(N)=O)NC(=O)C(C)(C)NC(=O)[C@H](CCCCN)NC(=O)[C@H](Cc2ccccc2)NC(=O)[C@H](C(C)C)NC(=O)[C@H](CO)NC(=O)CNC(=O)[C@@H]2CCCN2C(=O)[C@H](C(C)C)NC(=O)[C@H](CC(N)=O)NC(=O)[C@H](CO)NC(=O)[C@H](Cc2c[nH]cn2)NC(=O)[C@H](Cc2c[nH]cn2)NC(=O)[C@H](C)NC(=O)[C@H](CCC(N)=O)NC(=O)[C@H](CCCCN)NC(=O)[C@H](CCC(N)=O)NC1=O [compound 98] | 0.01 to 1 | 1 to 100 |
| CC[C@H](C)[C@H](NC(=O)[C@H](C)NC(=O)[C@H](CCCCN)NC(=O)[C@H](CCCNC(=N)N)NC(=O)[C@H](Cc1ccccc1)NC(=O)[C@H](CCC(N)=O)NC(=O)[C@@H]1CSSC[C@H](N)C(=O)N[C@@H](CC(=O)O)C(=O)N[C@@H](C)C(=O)N[C@@H]([C@@H](C)O)C(=O)N1)C(=O)N[C@@H](CC(=O)O)C(=O)N[C@@H](CC(=O)O)C(=O)N[C@H]1CSSC[C@@H](C(=O)N[C@@H](CCSC)C(=O)N[C@@H](CCCCN)C(=O)N[C@@H](CCC(N)=O)C(=O)N[C@@H](CCCCN)C(=O)N[C@@H](CCCCN)C(=O)N[C@@H](CCCCN)C(=O)N[C@@H](CCC(=O)O)C(=O)N[C@@H](Cc2ccccc2)C(=O)N[C@@H](CCCCN)C(N)=O)NC(=O)C(C)(C)NC(=O)[C@H](CCCCN)NC(=O)[C@H](Cc2ccccc2)NC(=O)[C@H](CO)NC(=O)[C@H](CO)NC(=O)[C@H](Cc2c[nH]cn2)NC(=O)[C@H](Cc2c[nH]cn2)NC(=O)[C@H](C)NC(=O)[C@H](CCC(N)=O)NC(=O)[C@H](CCCCN)NC(=O)[C@H](CC(=O)O)NC1=O [compound 240] | 0.01 to 1 | 1 to 100 |
| CCCC[C@H](NC(=O)[C@@H]1CSSC[C@H](NC(=O)[C@H](CC(=O)O)NC(=O)[C@H](CC(=O)O)NC(=O)[C@@H](NC(=O)[C@H](C)NC(=O)[C@H](CCCCN)NC(=O)[C@H](CCCNC(=N)N)NC(=O)[C@H](Cc2ccccc2)NC(=O)[C@H](CCC(N)=O)NC(=O)[C@@H]2CSSC[C@H](N)C(=O)N[C@@H](CC(=O)O)C(=O)N[C@@H](C)C(=O)N[C@@H]([C@@H](C)O)C(=O)N2)[C@@H](C)CC)C(=O)N[C@@H](CCC(N)=O)C(=O)N[C@@H](CCCCN)C(=O)N[C@@H](CCC(N)=O)C(=O)N[C@@H](C)C(=O)N[C@@H](Cc2c[nH]cn2)C(=O)N[C@@H](Cc2c[nH]cn2)C(=O)N[C@@H](CO)C(=O)N[C@@H](CC(N)=O)C(=O)N[C@@H](CO)C(=O)N[C@@H](Cc2ccccc2)C(=O)N[C@@H](CCCCN)C(=O)NC(C)(C)C(=O)N1)C(=O)N[C@@H](CCCCN)C(=O)N[C@@H](CCC(N)=O)C(=O)N[C@@H](CCCCN)C(=O)N[C@@H](CCCCN)C(=O)N[C@@H](CCCCN)C(=O)N[C@@H](CCC(=O)O)C(=O)N[C@@H](Cc1ccccc1)C(=O)N[C@@H](CCCCN)C(N)=O [compound 241] | 1 to 100 | 1 to 100 |
